Laboratory results reported in article PMC12390684 (Viruses, 2025).

By UniProt entry, the sequences of proteins in these tests, tags left out. Residues count along the entry.
UniProt Q9P2K8, 192-1024: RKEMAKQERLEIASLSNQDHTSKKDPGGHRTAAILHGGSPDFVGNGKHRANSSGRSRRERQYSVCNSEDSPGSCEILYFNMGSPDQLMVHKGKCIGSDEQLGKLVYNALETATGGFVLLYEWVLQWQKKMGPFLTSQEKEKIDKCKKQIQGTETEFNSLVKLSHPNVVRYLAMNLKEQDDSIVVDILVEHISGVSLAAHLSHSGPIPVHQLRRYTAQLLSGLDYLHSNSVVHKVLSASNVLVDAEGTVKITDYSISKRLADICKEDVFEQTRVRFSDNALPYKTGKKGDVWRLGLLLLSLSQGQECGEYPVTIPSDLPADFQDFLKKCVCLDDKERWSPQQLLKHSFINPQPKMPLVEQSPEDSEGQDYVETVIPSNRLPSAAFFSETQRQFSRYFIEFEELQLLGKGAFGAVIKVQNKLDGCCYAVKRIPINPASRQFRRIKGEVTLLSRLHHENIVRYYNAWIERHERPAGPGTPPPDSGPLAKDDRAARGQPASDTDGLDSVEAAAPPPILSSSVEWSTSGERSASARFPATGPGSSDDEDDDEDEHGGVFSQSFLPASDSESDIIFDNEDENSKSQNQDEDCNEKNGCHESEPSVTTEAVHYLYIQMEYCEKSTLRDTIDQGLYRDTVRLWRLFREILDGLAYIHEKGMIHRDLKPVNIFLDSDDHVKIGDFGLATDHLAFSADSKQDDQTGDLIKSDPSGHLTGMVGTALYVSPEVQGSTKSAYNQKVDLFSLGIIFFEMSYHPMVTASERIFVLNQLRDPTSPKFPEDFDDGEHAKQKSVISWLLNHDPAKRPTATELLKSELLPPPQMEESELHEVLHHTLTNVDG

Biological target: IN-GCN2 interaction (6xHis-IN / GST-GCN2) (UniProt P04585+Q9P2K8)
Type: binding, HIV-1 IN; human GCN2
Conditions: screen, single dose 100 µM, single replicate; residual AlphaLISA signal normalized to DMSO control

OC[C@H]1O[C@@H](n2cnc3c2NC=NC[C@H]3O)C[C@@H]1O [NSC218321]
IN-GCN2 interaction (%): 82.71%
